Structures are written as SMILES.

Amino acid sequences for entries named in this document (tags omitted). Residues count along the entry.
UniProt P09874, whole entry: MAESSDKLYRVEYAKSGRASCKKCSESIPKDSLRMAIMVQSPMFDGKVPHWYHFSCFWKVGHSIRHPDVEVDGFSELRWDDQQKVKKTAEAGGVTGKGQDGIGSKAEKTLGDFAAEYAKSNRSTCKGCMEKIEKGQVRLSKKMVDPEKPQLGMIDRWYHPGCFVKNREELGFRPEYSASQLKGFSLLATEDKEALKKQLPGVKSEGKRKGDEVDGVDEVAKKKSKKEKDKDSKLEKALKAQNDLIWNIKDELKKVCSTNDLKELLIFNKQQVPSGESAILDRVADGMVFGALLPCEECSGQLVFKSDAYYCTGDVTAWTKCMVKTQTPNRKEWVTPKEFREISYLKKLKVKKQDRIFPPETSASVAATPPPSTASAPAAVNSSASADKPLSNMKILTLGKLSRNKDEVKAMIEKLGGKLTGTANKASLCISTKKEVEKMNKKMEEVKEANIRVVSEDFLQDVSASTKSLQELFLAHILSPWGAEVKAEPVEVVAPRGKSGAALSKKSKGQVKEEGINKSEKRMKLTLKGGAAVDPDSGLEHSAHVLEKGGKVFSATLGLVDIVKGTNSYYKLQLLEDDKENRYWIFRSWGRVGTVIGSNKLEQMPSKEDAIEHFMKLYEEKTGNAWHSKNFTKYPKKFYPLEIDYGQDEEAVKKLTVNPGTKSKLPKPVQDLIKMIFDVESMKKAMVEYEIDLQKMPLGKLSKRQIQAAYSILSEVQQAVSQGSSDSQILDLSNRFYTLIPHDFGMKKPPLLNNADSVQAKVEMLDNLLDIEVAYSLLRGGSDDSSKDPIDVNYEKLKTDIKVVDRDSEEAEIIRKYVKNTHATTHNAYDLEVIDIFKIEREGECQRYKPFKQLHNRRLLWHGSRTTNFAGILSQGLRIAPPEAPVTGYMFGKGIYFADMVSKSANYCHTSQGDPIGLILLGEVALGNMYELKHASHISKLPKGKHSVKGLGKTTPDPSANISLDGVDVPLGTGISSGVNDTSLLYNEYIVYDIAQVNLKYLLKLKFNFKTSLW
UniProt Q9H2K2, 959-1164: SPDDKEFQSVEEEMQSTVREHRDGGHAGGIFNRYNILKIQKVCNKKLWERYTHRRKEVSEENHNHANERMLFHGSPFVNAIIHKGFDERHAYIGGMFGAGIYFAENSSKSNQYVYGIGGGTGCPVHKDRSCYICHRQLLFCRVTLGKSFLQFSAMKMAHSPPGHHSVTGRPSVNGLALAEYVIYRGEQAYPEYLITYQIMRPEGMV
UniProt O95271, 1112-1317: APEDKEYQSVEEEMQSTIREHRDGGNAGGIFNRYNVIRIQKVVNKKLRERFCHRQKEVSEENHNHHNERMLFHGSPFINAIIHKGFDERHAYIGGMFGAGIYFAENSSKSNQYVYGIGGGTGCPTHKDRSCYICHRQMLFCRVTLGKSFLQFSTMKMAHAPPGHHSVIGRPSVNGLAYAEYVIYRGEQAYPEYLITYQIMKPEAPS

Holding throughout (assay type): biochemical
In one experiment the target is PARP1 (Homo sapiens, UniProt P09874). As to the kind of experiment: In vitro ADP-ribosylation assay, PARP1. The settings on record: PARP1 FL (full length); NAD+ at or below KM.
Another experiment deals with TNKS2 (Homo sapiens, UniProt Q9H2K2). As to the kind of experiment: In vitro ADP-ribosylation assay, TNKS2. The settings on record: read-out: KM NAD+; TNKS2 ART.
The next experiment deals with TNKS1 (Homo sapiens, UniProt O95271). As to the kind of experiment: In vitro ADP-ribosylation assay, TNKS1. The settings on record: read-out: KM NAD+; TNKS1 ART.
The next experiment deals with T1, PARP15 (Homo sapiens, UniProt Q460N3).
T1 sequence (Q460N3 1-678): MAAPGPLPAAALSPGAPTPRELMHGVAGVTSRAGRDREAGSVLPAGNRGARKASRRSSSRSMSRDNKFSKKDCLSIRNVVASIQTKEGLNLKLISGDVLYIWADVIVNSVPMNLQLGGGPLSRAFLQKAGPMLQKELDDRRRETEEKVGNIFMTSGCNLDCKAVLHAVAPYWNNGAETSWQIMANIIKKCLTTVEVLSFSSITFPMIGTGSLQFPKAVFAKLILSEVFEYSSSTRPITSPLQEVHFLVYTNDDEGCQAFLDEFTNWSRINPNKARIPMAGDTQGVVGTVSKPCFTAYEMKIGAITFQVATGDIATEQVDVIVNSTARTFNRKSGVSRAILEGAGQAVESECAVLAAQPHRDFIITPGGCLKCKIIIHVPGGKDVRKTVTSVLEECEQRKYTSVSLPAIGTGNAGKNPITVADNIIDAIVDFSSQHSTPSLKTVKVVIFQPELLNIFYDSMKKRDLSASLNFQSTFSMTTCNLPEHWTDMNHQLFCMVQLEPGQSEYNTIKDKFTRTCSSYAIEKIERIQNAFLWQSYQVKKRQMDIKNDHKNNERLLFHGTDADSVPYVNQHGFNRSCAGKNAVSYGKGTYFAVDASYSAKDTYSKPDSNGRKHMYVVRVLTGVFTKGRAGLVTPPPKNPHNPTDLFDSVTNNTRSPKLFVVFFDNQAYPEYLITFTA
As to the kind of experiment: In vitro ADP-ribosylation assay, PARP15. The settings on record: PARP15 ART.

Another experiment addresses T2, PARP16 (Homo sapiens, UniProt Q8N5Y8).
T2 sequence (Q8N5Y8 1-322): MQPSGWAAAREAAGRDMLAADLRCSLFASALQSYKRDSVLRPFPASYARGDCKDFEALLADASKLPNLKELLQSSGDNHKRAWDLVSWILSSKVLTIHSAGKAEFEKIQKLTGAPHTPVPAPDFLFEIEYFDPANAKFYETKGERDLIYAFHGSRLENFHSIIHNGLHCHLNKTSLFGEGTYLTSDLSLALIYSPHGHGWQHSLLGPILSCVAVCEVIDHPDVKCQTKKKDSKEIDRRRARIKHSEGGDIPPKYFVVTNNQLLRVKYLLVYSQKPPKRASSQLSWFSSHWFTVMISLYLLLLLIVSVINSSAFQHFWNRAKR
As to the kind of experiment: In vitro ADP-ribosylation assay, PARP16. The settings on record: PARP16 FL (full length).

Compound `O=C(COc1cccc2c(=O)[nH]ccc12)c1ccccc1` [1 (UPF1069)] displayed a negative logarithm of the IC50 (pIC50) against PARP1 of 6.84±0.68.
On to `NC(=O)c1ccc[n+]([C@@H]2O[C@H](COP(=O)([O-])OP(=O)(O)OC[C@H]3O[C@@H](n4cnc5c(N)ncnc54)[C@H](O)[C@@H]3O)[C@@H](O)[C@H]2O)c1` [NAD+, nicotinamide adenine dinucleotide], for which the Km at TNKS2 worked out at 251 ± 56 µM; on TNKS1, 31 ± 4 µM.
As to `C[C@]1(c2nc3c(C(N)=O)cccc3[nH]2)CCCN1` [Veliparib], at PARP15, the IC50 result was “n.i” and the pIC50 result was “n.i”. At PARP16, the IC50 result was “n.i” and the pIC50 entry was “n.i”.

(Values after PMC5934274 (Journal of medicinal chemistry, 2016).)
